## Apparent affinities of Ab-14 variants for a coronavirus HR2 peptide

From the AlphaSeq antibody data of Engelhart et al. 2022 (doi:10.1038/s41597-022-01779-4), copy in the FLAb collection.

Antigen: PDVDLGDISGINAS, a 14-residue peptide of the SARS-CoV-2 spike HR2 region.

Ab-14 is the parent antibody, in scFv form: VH, then three GGGGS repeats, then VL. The light chain is unchanged in all variants.
VH: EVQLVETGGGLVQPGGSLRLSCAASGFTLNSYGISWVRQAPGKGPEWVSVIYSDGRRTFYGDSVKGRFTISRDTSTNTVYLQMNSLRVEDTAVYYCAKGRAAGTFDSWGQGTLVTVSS
VL: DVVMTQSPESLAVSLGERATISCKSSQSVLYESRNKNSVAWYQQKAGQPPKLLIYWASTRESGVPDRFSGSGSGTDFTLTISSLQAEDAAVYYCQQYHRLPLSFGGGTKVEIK

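The parent was found by panning a naive human phage display library on the peptide. Variants in AAYL49 differ from the parent at up to three CDR positions; double and triple changes were sampled at random. The assay is AlphaSeq: two haploid yeast populations carry antibody and antigen on their surface. After mating in shaken culture at 30 °C for 16 h, diploids were selected and their barcode pairs sequenced. The ratio of observed to expected reads was calibrated, replicate by replicate, on BCL2-family standards whose Kd was known from biolayer interferometry. The assay was run in three technical replicates.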

Changes read parent residue, position, new residue, counted from the first residue of the VH shown.
Scale: log10 of Kd in nM, estimated from mating counts; low values are strong binders.
Averages over replicates are reported, and they cover detected replicates only.
"n.d." means that the variant was in the library but no mating with the target was seen in that replicate; the authors take this as a sign of poor binding, and no number exists.
Nonspecific signal, from three strains lacking the peptide, appeared in 15% of pairings of library AAYL49, centred on 4.06 (5% of these signals below 2.83); values are not corrected for it. Also given: how often the same scFv was detected with the empty control strains, with their mean in brackets.
For reference, the parent read 0.65 as the reference entry and 4.11 (one replicate of three) as a member of this library.

{"changes": "S31T R57C S107G", "log10 Kd (nM) by replicate": "5.63 3.89 n.d.", "mean log10 Kd (nM)": "4.76", "control signals": "1/9 (3.45)"}
{"changes": "T28A S53Q G61I", "log10 Kd (nM) by replicate": "1.54 1.76 1.55", "mean log10 Kd (nM)": "1.62", "control signals": "2/9 (4.82)"}
{"changes": "R56A G61I", "log10 Kd (nM) by replicate": "0.72 0.89 0.93", "mean log10 Kd (nM)": "0.85", "control signals": "1/9 (3.22)"}
{"changes": "S31V R100W", "log10 Kd (nM) by replicate": "1.02 n.d. 1.18", "mean log10 Kd (nM)": "1.10", "control signals": "0/9"}
{"changes": "K65M G99I", "log10 Kd (nM) by replicate": "n.d. n.d. n.d.", "mean log10 Kd (nM)": "n.d.", "control signals": "0/9"}
{"changes": "T28K G61N", "log10 Kd (nM) by replicate": "3.26 2.44 3.78", "mean log10 Kd (nM)": "3.16", "control signals": "3/9 (4.38)"}
{"changes": "S31C G99C A101T", "log10 Kd (nM) by replicate": "3.19 n.d. n.d.", "mean log10 Kd (nM)": "3.19", "control signals": "0/9"}
{"changes": "V50H S53I G103L", "log10 Kd (nM) by replicate": "5.37 3.99 n.d.", "mean log10 Kd (nM)": "4.68", "control signals": "7/9 (4.06)"}
{"changes": "I51W S53Q Y60T", "log10 Kd (nM) by replicate": "n.d. n.d. n.d.", "mean log10 Kd (nM)": "n.d.", "control signals": "0/9"}
{"changes": "Y32E G55A D106F", "log10 Kd (nM) by replicate": "n.d. 4.15 n.d.", "mean log10 Kd (nM)": "4.15", "control signals": "4/9 (4.50)"}
{"changes": "G61N S107V", "log10 Kd (nM) by replicate": "n.d. 3.24 n.d.", "mean log10 Kd (nM)": "3.24", "control signals": "0/9"}
{"changes": "F27S V50D S63P", "log10 Kd (nM) by replicate": "6.36 n.d. n.d.", "mean log10 Kd (nM)": "6.36", "control signals": "4/9 (4.75)"}
{"changes": "L29S R56A D106S", "log10 Kd (nM) by replicate": "n.d. n.d. n.d.", "mean log10 Kd (nM)": "n.d.", "control signals": "0/9"}
{"changes": "Y52A R56E F59T", "log10 Kd (nM) by replicate": "n.d. n.d. n.d.", "mean log10 Kd (nM)": "n.d.", "control signals": "2/9 (4.12)"}
{"changes": "S53F R57S F59K", "log10 Kd (nM) by replicate": "4.68 n.d. n.d.", "mean log10 Kd (nM)": "4.68", "control signals": "0/9"}
{"changes": "F27K D54C D106L", "log10 Kd (nM) by replicate": "5.35 3.69 4.55", "mean log10 Kd (nM)": "4.53", "control signals": "7/9 (4.06)"}
{"changes": "T28N S35K G55E", "log10 Kd (nM) by replicate": "n.d. n.d. n.d.", "mean log10 Kd (nM)": "n.d.", "control signals": "0/9"}
{"changes": "I34E R56Y D62P", "log10 Kd (nM) by replicate": "n.d. n.d. n.d.", "mean log10 Kd (nM)": "n.d.", "control signals": "1/9 (4.78)"}
{"changes": "L29H R100S", "log10 Kd (nM) by replicate": "n.d. n.d. 3.81", "mean log10 Kd (nM)": "3.81", "control signals": "0/9"}
{"changes": "G55T K65V A102D", "log10 Kd (nM) by replicate": "n.d. n.d. n.d.", "mean log10 Kd (nM)": "n.d.", "control signals": "1/9 (3.61)"}
{"changes": "S35F G61F F105K", "log10 Kd (nM) by replicate": "n.d. n.d. 3.02", "mean log10 Kd (nM)": "3.02", "control signals": "0/9"}
{"changes": "R56F K65V", "log10 Kd (nM) by replicate": "n.d. n.d. n.d.", "mean log10 Kd (nM)": "n.d.", "control signals": "0/9"}
{"changes": "L29E R56I R57Q", "log10 Kd (nM) by replicate": "3.68 n.d. n.d.", "mean log10 Kd (nM)": "3.68", "control signals": "1/9 (3.37)"}
{"changes": "I51S K65R", "log10 Kd (nM) by replicate": "n.d. n.d. n.d.", "mean log10 Kd (nM)": "n.d.", "control signals": "1/9 (4.42)"}
{"changes": "F27I N30L", "log10 Kd (nM) by replicate": "3.07 2.67 3.12", "mean log10 Kd (nM)": "2.95", "control signals": "0/9"}

The closing 3 entries, repeated:

{"changes": "L29E R56I R57Q", "log10 Kd (nM) by replicate": "3.68 n.d. n.d.", "mean log10 Kd (nM)": "3.68", "control signals": "1/9 (3.37)"}
{"changes": "I51S K65R", "log10 Kd (nM) by replicate": "n.d. n.d. n.d.", "mean log10 Kd (nM)": "n.d.", "control signals": "1/9 (4.42)"}
{"changes": "F27I N30L", "log10 Kd (nM) by replicate": "3.07 2.67 3.12", "mean log10 Kd (nM)": "2.95", "control signals": "0/9"}